Test results as given in publication PMC9671780 (Bioorganic Chemistry, 2022).

Biological target: SARS-CoV-2 M^pro (Severe acute respiratory syndrome coronavirus 2, UniProt P0DTD1)
Assay: biochemical
Conditions: IC50 against SARS-CoV-2 M^pro, Table 1 and text

Row | Compound | IC50 [µM]
1 | Cc1nn(-c2ccc(Cl)cc2)c2c1C(c1cc(Cl)ccc1Cl)C(C#N)=C(N)O2 (stereo not drawn) [Compound 28, 6-Amino-1-(4-chlorophenyl)-4-(2,5-dichlorophenyl)-3-methyl-1,4-dihydropyrano[2,3-c]pyrazole-5-carbonitrile] | 16.4 ± 0.8
2 | COc1cc(C2C(C#N)=C(N)Oc3c2c(C)nn3-c2ccc(Cl)cc2)ccc1O (stereo not drawn) [Compound 32, 6-Amino-1-(4-chlorophenyl)-4-(4-hydroxy-3-methoxyphenyl)-3-methyl-1,4-dihydropyrano[2,3-c]pyrazole-5-carbonitrile] | 14.6 ± 0.7
3 | Cc1nn(-c2ccc(Cl)cc2)c2c1C(c1cccc(Cl)c1Cl)C(C#N)=C(N)O2 (stereo not drawn) [Compound 26, 6-Amino-1-(4-chlorophenyl)-4-(2,3-dichlorophenyl)-3-methyl-1,4-dihydropyrano[2,3-c]pyrazole-5-carbonitrile] | 41.8 ± 2.1
